## Membrane permeability of cyclic peptides

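Conditions beyond the assay type are not listed; see the original paper. The list need not hold all peptides of the study. Entries at the database's floor value (log10 P of -10) are not listed.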

PAMPA measures passive passage through an artificial lipid membrane.
Permeability is given as log10 of P in cm/s; higher (less negative) is more permeable.

The entry for CCCN1CC(=O)N[C@@H](CC(C)C)C(=O)N[C@H](CC(C)C)C(=O)N2CCC[C@H]2C(=O)N(C)[C@H](CC(C)C)C(=O)N[C@@H](Cc2ccccc2)C(=O)N2CCC[C@H]2C1=O lists PAMPA -5.32 (log10 cm/s).
The entry for CC(C)C[C@@H]1NC(=O)[C@@H]2CCCN2C(=O)[C@H](CC(C)C)NC(=O)[C@@H](CC(C)C)N(C)C(=O)[C@H](C)NC(=O)[C@H](Cc2ccccc2)NC1=O lists PAMPA -5.79 (log10 cm/s).
The entry for CC(C)C[C@@H]1NC(=O)[C@@H]2CCCN2C(=O)[C@@H](CC(C)C)NC(=O)[C@H](CC(C)C)N(C)C(=O)[C@@H](C)N(C)C(=O)[C@@H]2CCCN2C(=O)[C@H](Cc2ccccc2)NC1=O lists PAMPA -6.32 (log10 cm/s).
The entry for CC(C)C[C@H]1NC(=O)C[C@H](Cc2ccccc2)NC(=O)[C@H](Cc2ccccc2)NC(=O)[C@H](CC(C)C)N(C)C(=O)[C@@H]2CCCN2C(=O)C[C@H](Cc2ccccc2)NC1=O lists PAMPA -5.68 (log10 cm/s).
The entry for CC(C)C[C@@H]1NC(=O)[C@H](C)NC(=O)[C@H](Cc2ccccc2)NC(=O)[C@H](CC(C)C)N(C)C(=O)[C@H]2CCCN2C(=O)CN(Cc2ccccc2)C1=O lists PAMPA -5.81 (log10 cm/s).
The entry for CC(C)C[C@@H]1NC(=O)[C@@H](C)N(C)C(=O)[C@@H]2CCCN2C(=O)[C@H](Cc2ccccc2)NC(=O)[C@@H](CC(C)C)N(C)C(=O)[C@H]2CCCN2C(=O)[C@@H](CC(C)C)NC1=O lists PAMPA -5.35 (log10 cm/s).
The entry for CC(C)C[C@@H]1NC(=O)[C@H](C)NC(=O)[C@H]2CCCN2C(=O)[C@H](Cc2ccccc2)NC(=O)[C@@H](CC(C)C)N(C)C(=O)[C@@H]2CCCN2C(=O)CN(Cc2ccccc2)C1=O lists PAMPA -6.31 (log10 cm/s).
The entry for CCCN1CC(=O)N(C)[C@@H](CC(C)C)C(=O)N(C)[C@H](CC(C)C)C(=O)N2CCC[C@H]2C(=O)N(C)[C@H](CC(C)C)C(=O)N[C@@H](Cc2ccccc2)C(=O)N2CCC[C@H]2C1=O lists PAMPA -4.89 (log10 cm/s).
The entry for CC(C)C[C@@H]1NC(=O)[C@H](C)N(C)C(=O)[C@H](Cc2ccccc2)NC(=O)[C@@H](CC(C)C)N(C)C(=O)[C@@H]2CCCN2C(=O)CN(Cc2ccccc2)C1=O lists PAMPA -4.99 (log10 cm/s).
The entry for CC(C)C[C@@H]1NC(=O)[C@@H]2CCCN2C(=O)[C@H](CC(C)C)N(C)C(=O)[C@@H](CC(C)C)N(C)C(=O)[C@H](C)NC(=O)[C@@H]2CCCN2C(=O)[C@H](Cc2ccccc2)NC1=O lists PAMPA -5.75 (log10 cm/s).
The entry for CCCN1CC(=O)N[C@@H](CC(C)C)C(=O)N(Cc2ccccc2)CC(=O)N2CCC[C@H]2C(=O)N(C)[C@@H](CC(C)C)C(=O)N[C@@H](Cc2ccccc2)C(=O)N2CCC[C@H]2C1=O lists PAMPA -5.42 (log10 cm/s).
The entry for CC(C)C[C@H]1NC(=O)[C@H](C)N(C)C(=O)[C@H](Cc2ccccc2)NC(=O)CN(Cc2ccccc2)C(=O)[C@@H]2CCCN2C(=O)C[C@H](Cc2ccccc2)NC1=O lists PAMPA -6.17 (log10 cm/s).
The entry for CC(C)C[C@@H]1NC(=O)[C@H](C)N(C)C(=O)[C@H]2CCCN2C(=O)[C@H](Cc2ccccc2)NC(=O)CN(Cc2ccccc2)C(=O)[C@H]2CCCN2C(=O)[C@@H](CC(C)C)NC1=O lists PAMPA -5.68 (log10 cm/s).

Repeated from above, the 2 entries with the highest PAMPA:

CCCN1CC(=O)N(C)[C@@H](CC(C)C)C(=O)N(C)[C@H](CC(C)C)C(=O)N2CCC[C@H]2C(=O)N(C)[C@H](CC(C)C)C(=O)N[C@@H](Cc2ccccc2)C(=O)N2CCC[C@H]2C1=O has PAMPA -4.89 (log10 cm/s).
CC(C)C[C@@H]1NC(=O)[C@H](C)N(C)C(=O)[C@H](Cc2ccccc2)NC(=O)[C@@H](CC(C)C)N(C)C(=O)[C@@H]2CCCN2C(=O)CN(Cc2ccccc2)C1=O has PAMPA -4.99 (log10 cm/s).

Source: CycPeptMPDB (Li et al. 2023), which took these values from Townsend et al. 2020, doi:10.26434/chemrxiv.13335941.v1.